In the case of “2-hydroxy-N,N,N-trimethylethan-1-aminium (2R)-2-(4-chlorophenyl)-2-[3-(trifluoromethyl)phenoxy]acetate [CB-0406 choline salt]”, the solubility (simulated intestinal fluid without pancreatin) is reported as > 200 mg/mL and the “solubility in simulated intestinal fluid, fold greater than that of CB-0406” value (simulated intestinal fluid, relative to CB-0406) is reported as ≥ 60 fold.

From patent publication US20210355066A1, “CB-0406 choline salt” (CymaBay Therapeutics, Inc., priority 2020, published 2021)
